TDP1 cell CPT – DT40-hTDP1 cell growth loss with CPT; chicken DT40 Tdp1-/-;hTDP1 cells + 20 nM CPT, ATP luminescence, 48 h; Potency, µM (titrated, usually from 46.2 µM), hits mostly inhibitors; 420,000 compounds, 12% hits; further: nearly all actives have a fitted effect of over 55% in size
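Chicken DT40 Tdp1-/- cells complemented with human TDP1, 400 cells/well, exposed to compounds plus 20 nM camptothecin for at least 48 h at 37 C; viability read as ATP content by CellTiter-Glo luminescence.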
miR-21 reporter – miR-21 reporter, rising signal | AID 2288 | HeLa miR-21 FLuc reporter, luciferase, 48 h | 340,000 tested, under 10 active | Potency, µM (doses to about 38.3 µM); active = well fitted rising curve with a large enough effect; inconclusive = small, poorly fitted or top-dose-only effect; inactive = no such curve, though single readings can be large or run the other way;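 note: miR-21 action dims this reporter so a rising signal means less miR-21 action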
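HeLa miR-21-FLuc reporter line, endogenous miR-21; 2000 cells/well in DMEM/10% FBS; compound titration up to ~40uM final, 48 h, 37 degree Celsius; luciferase detection reagent, 15 min lysis, CCD luminescence.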
DT40 TDP1 no CPT – qHTS for Inhibitors of human tyrosyl-DNA phosphodiesterase 1 (TDP1): qHTS in cells in absence of CPT; DT40 Tdp1-/- hTDP1 cells, no CPT, ATP luminescence, 48 h; Potency, µM (doses to about 46.2 µM), most hits filed as inhibitors; 420,000 compounds, 15% hits; further: nearly all actives have a fitted effect of over 55% in size
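Growth of hTDP1-complemented DT40 Tdp1-knockout cells is measured by ATP luminescence after at least 48 hr compound exposure at 37 °C, with DMSO substituting for the 20 nM CPT used in the parallel screen.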
uPA generation – blocks generation of uPA at the cell surface; cell surface uPA generation assay, qHTS; Potency, µM (highest dose often 38.3 µM), usual class: inhibitors; 330,000 compounds, 0.31% hits; active means well fitted inhibition curve with a large enough effect; inconclusive means small, poorly fitted or top-dose-only effect; inactive means no such curve, though single readings can be large or run the other way; tested in mouse RAW 264.7 cells; further: nearly all actives have a fitted effect of over 55% in size
TDP1 block – inhibitors of human tyrosyl-DNA phosphodiesterase TDP1; Q9NUW8; recombinant TDP1, AlphaScreen DNA substrate cleavage; Potency, µM (titrated, usually from 130 µM), actives largely listed as inhibitors; 350,000 compounds, 0.28% hits; AID 485290; further: nearly all actives have a fitted effect of over 40% in size
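Here, a 5' biotin and 3' phosphotyrosine-FITC DNA oligonucleotide reports Tdp1 activity: intact substrate bridges AlphaScreen beads, while cleavage leaves a 3' phosphate and drops signal. All incubations at room temperature.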
Numbers stand for hits; . = inactive; ? = inconclusive; / = no result. The list is not random: actives were taken first. Their share in the collection is about 16%. Unless noted, the call rests on the fitted dose curve; in most records, active means well fitted curve in the direction sought with a large enough effect; inconclusive means small, poorly fitted or top-dose-only effect, or another doubt; inactive means no such curve, though single readings can be large; an effect the other way counts as inactive or inconclusive.

SMILES | TDP1 cell CPT | miR-21 reporter | DT40 TDP1 no CPT | uPA generation | TDP1 block
Nc1ccc(NC(=O)c2ccccc2)c2c1C(=O)c1ccccc1C2=O | 13µM | . | 16µM | . | .
O=C(Nc1ccccc1SC(=O)c1ccccc1)c1ccccc1 | 3.3µM | / | 4.6µM | / | /
O=C(Cc1c(F)cccc1Cl)Nc1ccc(S(=O)(=O)NCC2CCCO2)cc1 (stereo not drawn) | . | . | ? | . | .
CN(CC(CC(=O)Nc1nncs1)c1ccccc1)S(=O)(=O)c1ccc(Br)cc1 (stereo not drawn) | 16µM | . | ? | . | .
CCn1c(SCCOc2ccc(OC)cc2)nnc1C(CO)NC(=O)c1ccc(OC)cc1 (stereo not drawn) | ? | . | ? | . | .
COc1cc(OC)c(C2=NOC(C(=O)NCc3cccnc3)C2)cc1Cl (stereo not drawn) | ? | . | 15µM | 10µM | /
COc1ccc(CCNC(=O)c2ccc([N+](=O)[O-])cc2)cc1 | 23µM | . | ? | . | .
COc1cc(C2=NOC(C(=O)NCc3cccs3)C2)cc(OC)c1OC (stereo not drawn) | 2.3µM | . | 1.6µM | . | .
COc1ccc(OC)c(C2=NOC(C(=O)NCc3cccnc3)C2)c1 (stereo not drawn) | ? | . | ? | . | /
COc1cc(C2=NOC(C(=O)NCc3cccnc3)C2)cc(OC)c1OC (stereo not drawn) | ? | . | ? | . | /
COc1ccc(C2=NOC(C(=O)NCc3cccs3)C2)cc1 (stereo not drawn) | 5.2µM | . | 2.9µM | . | .
COc1ccc([C@@H]2CC(=O)c3c(O)cc(O[C@@H]4O[C@H](CO[C@@H]5O[C@@H](C)[C@H](O)[C@@H](O)[C@H]5O)[C@@H](O)[C@H](O)[C@H]4O)cc3O2)cc1 | / | / | / | / | .
COc1cc(OC)c(C2=NOC(C(=O)NCc3cccs3)C2)cc1Cl (stereo not drawn) | 2.3µM | . | 2.3µM | . | .
COc1ccc(CCNC(=O)C2CC(c3cccc([N+](=O)[O-])c3)=NO2)cc1 (stereo not drawn) | . | . | ? | . | .
COc1ccc(CCNC(=O)C2CC(c3ccc([N+](=O)[O-])cc3)=NO2)cc1 (stereo not drawn) | 6.5µM | . | ? | . | .
CCn1ncc(C2=NOC(C(=O)NCc3ccc(Cl)cc3)C2)c1C (stereo not drawn) | 5.8µM | . | 5.8µM | / | .
CCn1ncc(C2=NOC(C(=O)Nc3cccnc3)C2)c1C (stereo not drawn) | . | . | . | . | .
COc1cc(NC(=O)C2CC(c3cccc(OC)c3OC)=NO2)cc(OC)c1OC (stereo not drawn) | 14µM | . | 16µM | / | .
COc1cccc(C2=NOC(C(=O)Nc3cccnc3Cl)C2)c1OC (stereo not drawn) | . | . | . | . | .
CCOC(=O)C(C)n1cnc2scc(-c3ccc(C)cc3)c2c1=O (stereo not drawn) | . | . | ? | . | .
CC(C)COC(=O)Cn1nnc2sc(-c3ccccc3)cc2c1=O | . | . | . | / | .
Cc1ccc(S(=O)(=O)/N=C(/Nc2cccc3ccccc23)c2ccc(F)cc2)cc1 | ? | . | ? | . | .
COc1ccc(CNC(=O)C2CC(c3ccc(OC)cc3)=NO2)cc1 (stereo not drawn) | ? | . | . | . | .
COc1ccc(C2=NOC(C(=O)NCc3ccc(F)cc3)C2)cc1 (stereo not drawn) | 2.3µM | . | 2.3µM | . | .
O=C(NCc1cccs1)C1CC(c2ccccc2O)=NO1 (stereo not drawn) | 21µM | . | ? | . | .
COc1ccc(CCNC(=O)c2ccc3c(c2)N(Cc2ccccc2C)C(=O)c2ccccc2S3)cc1OC | 3.3µM | . | 3.7µM | / | .
COc1ccccc1CNC(=O)c1ccc2c(c1)N(Cc1cc(C)ccc1C)C(=O)c1ccccc1S2 | 9.2µM | . | 9.2µM | / | .
N=c1oc2cc(O)ccc2cc1C(=O)Nc1nc2ccccc2s1 | . | . | . | . | .
